# ChEMBL document CHEMBL4359834, “(S)-4-(Difluoromethyl)-5-(4-(3-methylmorpholino)-6-morpholino-1,3,5-triazin-2-yl)pyridin-2-amine (PQR530), a Potent, Orally Bioavailable, and Brain-Penetrable Dual Inhibitor of Class I PI3K and mTOR Kinase” (J Med Chem, 2019)
# Species on record: Homo sapiens
# Experiment: Selectivity ratio, ratio of Ki for recombinant N-terminal His6-tagged PI3K p110alpha (unknown origin) to Ki for recombinant human C-terminal GST-tagged mTOR (1360 to 2549 amino acids) expressed in insect cells
row,Compound,Ratio Ki
1,C[C@@H]1COCCN1c1nc(-c2cnc(N)cc2C(F)(F)F)nc(N2CCOC[C@H]2C)n1,4.01
2,C[C@@H]1COC[C@H](C)N1c1nc(-c2cnc(N)cc2C(F)(F)F)nc(N2[C@H](C)COC[C@@H]2C)n1,0.79
3,Nc1cc(C(F)(F)F)c(-c2nc(N3C4CCC3COC4)nc(N3C4CCC3COC4)n2)cn1,60.5
4,C[C@@H]1COC[C@@H](C)N1c1nc(-c2cnc(N)cc2C(F)(F)F)nc(N2[C@H](C)COC[C@H]2C)n1,32.7
5,C[C@H]1COCCN1c1nc(-c2cnc(N)cc2C(F)F)cc(N2CCOCC2)n1,1.16
6,C[C@H]1COCCN1c1nc(-c2cnc(N)cc2C(F)F)nc(N2CCOCC2)n1,1.5
7,C[C@H]1COCCN1c1cc(-c2cnc(N)cc2C(F)F)nc(N2CCOCC2)n1,0.32
8,C[C@H]1COCCN1c1cc(-c2cnc(N)nc2C(F)F)nc(N2CCOCC2)n1,0.01
9,C[C@@H]1COC[C@@H](C)N1c1nc(-c2cnc(N)cc2C(F)(F)F)nc(N2CCOCC2)n1,1.38
10,C[C@H]1COCCN1c1nc(-c2cnc(N)cc2C(F)(F)F)nc(N2CCOC[C@@H]2C)n1,0.05
11,Nc1cc(C(F)(F)F)c(-c2nc(N3CCOCC3)nc(N3CC4CCC(C3)O4)n2)cn1,0.65
12,C[C@H]1COCCN1c1nc(-c2cnc(N)nc2C(F)F)nc(N2CCOCC2)n1,0.18
13,C[C@H]1COCCN1c1nc(-c2cnc(N)nc2C(F)(F)F)nc(N2CCOCC2)n1,0.11
14,Nc1cc(C(F)(F)F)c(-c2nc(N3CCOCC3)nc(N3C4CCC3COC4)n2)cn1,0.46
15,C[C@H]1COC[C@H](C)N1c1nc(-c2cnc(N)cc2C(F)(F)F)nc(N2CCOCC2)n1,0.26
16,C[C@H]1COC[C@H](C)N1c1nc(-c2cnc(N)cc2C(F)(F)F)nc(N2[C@@H](C)COC[C@@H]2C)n1,0.14
17,C[C@H]1COCCN1c1nc(-c2cnc(N)cc2C(F)(F)F)nc(N2CCOCC2)n1,0.33
18,Nc1cc(C(F)(F)F)c(-c2nc(N3CC4CCC(C3)O4)nc(N3CC4CCC(C3)O4)n2)cn1,4.12
19,C[C@@H]1COC[C@H](C)N1c1nc(-c2cnc(N)cc2C(F)(F)F)nc(N2CCOCC2)n1,1.42
20,C[C@@H]1COCCN1c1nc(-c2cnc(N)cc2C(F)(F)F)nc(N2CCOCC2)n1,0.49
21,C[C@H]1COCCN1c1nc(-c2cnc(N)nc2C(F)F)cc(N2CCOCC2)n1,0.27
